Results taken from ChEMBL document CHEMBL4007444, “Development of New Benzenesulfonamides As Potent and Selective Nav1.7 Inhibitors for the Treatment of Pain” (J Med Chem, 2017).

Amino acid sequences for entries named in this document (tags omitted).
UniProt Q15858, whole entry: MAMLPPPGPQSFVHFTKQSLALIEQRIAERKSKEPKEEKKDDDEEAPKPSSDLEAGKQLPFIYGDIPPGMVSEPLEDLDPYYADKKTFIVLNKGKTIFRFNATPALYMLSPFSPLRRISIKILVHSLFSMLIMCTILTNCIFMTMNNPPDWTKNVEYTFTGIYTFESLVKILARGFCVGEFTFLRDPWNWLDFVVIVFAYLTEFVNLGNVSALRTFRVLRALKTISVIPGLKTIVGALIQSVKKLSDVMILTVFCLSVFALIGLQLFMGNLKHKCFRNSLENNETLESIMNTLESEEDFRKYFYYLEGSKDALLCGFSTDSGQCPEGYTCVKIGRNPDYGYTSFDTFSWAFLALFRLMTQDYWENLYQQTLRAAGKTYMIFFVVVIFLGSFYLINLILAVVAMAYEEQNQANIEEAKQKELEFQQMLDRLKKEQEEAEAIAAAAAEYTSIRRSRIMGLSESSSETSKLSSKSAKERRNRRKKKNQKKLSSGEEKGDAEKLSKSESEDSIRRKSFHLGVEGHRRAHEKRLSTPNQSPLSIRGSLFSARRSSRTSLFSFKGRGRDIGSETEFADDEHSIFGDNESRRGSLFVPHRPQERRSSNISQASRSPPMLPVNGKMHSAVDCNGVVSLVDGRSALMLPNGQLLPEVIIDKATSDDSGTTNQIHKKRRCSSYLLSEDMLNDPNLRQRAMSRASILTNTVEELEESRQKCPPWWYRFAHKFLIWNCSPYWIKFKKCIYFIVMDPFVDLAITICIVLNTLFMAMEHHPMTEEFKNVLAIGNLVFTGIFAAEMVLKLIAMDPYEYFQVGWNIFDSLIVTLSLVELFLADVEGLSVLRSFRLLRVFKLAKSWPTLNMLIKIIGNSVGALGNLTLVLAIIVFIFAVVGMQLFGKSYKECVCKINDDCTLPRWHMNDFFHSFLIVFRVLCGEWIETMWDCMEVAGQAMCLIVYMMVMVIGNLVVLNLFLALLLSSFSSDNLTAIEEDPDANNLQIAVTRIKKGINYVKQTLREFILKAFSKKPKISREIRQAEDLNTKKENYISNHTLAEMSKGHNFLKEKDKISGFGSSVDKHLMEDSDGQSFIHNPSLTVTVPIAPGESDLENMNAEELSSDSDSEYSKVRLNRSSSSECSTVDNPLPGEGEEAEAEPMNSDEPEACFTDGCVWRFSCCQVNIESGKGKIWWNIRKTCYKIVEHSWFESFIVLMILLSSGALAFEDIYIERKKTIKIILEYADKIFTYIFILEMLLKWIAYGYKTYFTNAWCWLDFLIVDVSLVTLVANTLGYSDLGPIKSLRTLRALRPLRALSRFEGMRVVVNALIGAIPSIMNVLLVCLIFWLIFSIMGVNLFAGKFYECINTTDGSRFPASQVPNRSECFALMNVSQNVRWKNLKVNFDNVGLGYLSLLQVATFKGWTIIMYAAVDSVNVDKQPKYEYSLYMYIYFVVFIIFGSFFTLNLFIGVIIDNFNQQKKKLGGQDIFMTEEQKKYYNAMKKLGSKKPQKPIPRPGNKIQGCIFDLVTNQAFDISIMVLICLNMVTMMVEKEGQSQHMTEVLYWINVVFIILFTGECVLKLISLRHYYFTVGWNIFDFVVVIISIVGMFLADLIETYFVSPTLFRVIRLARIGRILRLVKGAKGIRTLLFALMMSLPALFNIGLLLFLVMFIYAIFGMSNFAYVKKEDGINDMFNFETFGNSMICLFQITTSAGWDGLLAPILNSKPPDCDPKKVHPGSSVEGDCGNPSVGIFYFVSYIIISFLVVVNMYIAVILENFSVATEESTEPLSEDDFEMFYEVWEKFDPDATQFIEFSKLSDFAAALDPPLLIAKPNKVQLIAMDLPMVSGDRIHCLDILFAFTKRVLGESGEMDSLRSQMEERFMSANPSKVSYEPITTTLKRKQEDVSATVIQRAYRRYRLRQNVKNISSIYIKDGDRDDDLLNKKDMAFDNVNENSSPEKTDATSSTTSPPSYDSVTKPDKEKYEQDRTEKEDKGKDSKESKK

Target: Sodium channel protein type 9 subunit alpha (Homo sapiens, UniProt Q15858)
Experiment: Inhibition of recombinant human Nav1.7 expressed in HEK293 cells assessed as reduction in peak inward current at -60 mV holding potential measured after 600 secs by IonWorks Barracuda patch-clamp assay
Assay type: cell-based
How it was run: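 HEK293 cells expressing the channel, measured by population patch clamp on IonWorks Barracuda. […] Internal: K-gluconate/KCl, pH 7.2. Compound incubated 600 s between pre- and post-compound reads. Nav1.7: held at -60 mV, 300 ms at -100 mV, then 20 ms test pulse to -20 mV. Nav1.5: held at -40/-50 mV, 300 ms at -100 mV, then step to -10 mV to inactivate.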

Structure (SMILES)	IC50 [nM]
O=S(=O)(Nc1nccs1)c1cc(Cl)c(NCCC2CCCCN2)cc1F (racemic)	8.4
CN[C@H]1CC[C@@](CCOc2cc(F)c(S(=O)(=O)Nc3ncns3)cc2F)(c2ccccc2)CC1	963
N[C@H]1CC[C@](CCNc2cc(F)c(S(=O)(=O)Nc3nccs3)cc2Cl)(c2ccccc2)CC1	9
N[C@H]1CC[C@@](CCNc2cc(F)c(S(=O)(=O)Nc3nccs3)cc2Cl)(c2ccccc2)CC1	164
